# Binding of CDR-mutated scFvs to a peptide of the spike HR2 region

Values reported by Li et al. 2023, doi:10.1038/s41467-023-39022-2 (FLAb copy).

The target is the same throughout: PDVDLGDISGINAS, from the HR2 region of SARS-CoV-2 spike.

Each scFv is VH, the linker GGGGSGGGGSGGGGS, VL, as in the parent Ab-14, and differs from it in the CDRs of the heavy chain only.
VH: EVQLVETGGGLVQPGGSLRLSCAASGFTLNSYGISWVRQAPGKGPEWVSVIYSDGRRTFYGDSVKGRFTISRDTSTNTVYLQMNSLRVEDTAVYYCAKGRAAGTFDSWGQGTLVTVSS
VL: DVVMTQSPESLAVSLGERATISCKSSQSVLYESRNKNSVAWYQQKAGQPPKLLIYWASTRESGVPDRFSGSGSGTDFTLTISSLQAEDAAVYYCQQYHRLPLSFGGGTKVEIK

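The starting antibody came from a phage panning campaign against this peptide. These sequences belong to a second round, designed from the earlier measurements on random variants of the parent. Several design methods are mixed in this list. The scFvs were displayed on barcoded MATa yeast, the peptide on MATalpha yeast. Pairs that bind mate more often; barcode pairs of the diploids are counted by sequencing. Scores were corrected for input abundance and mapped to Kd with protein pairs of known affinity run in the same pool. There are six technical replicates.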

Positions count from residue 1 of the parent VH; T28S puts S in place of T. Variants here have at most six changes. Affinities are written as log10 Kd with Kd in nM; a lower number is a better binder. Averages over replicates are reported, and they cover detected replicates only. "nd" marks a missing value. The strain was present, yet no cells mated with the target were sequenced in that replicate, which points to weak or no binding. In the paper, a design with two or fewer of six values counts as a poor binder.

The variant T28S G61D R100M A101K gave 1.01, 1.07, 1.53, 1.17, 0.81, 1.56 (mean 1.19). With N30E G61S R100W T104G the result was nd, nd, nd, nd, nd, nd. With N30D R56M S107R the result was 1.07, 0.97, -0.31, nd, 0.13, 0.21 (mean 0.41). The variant T28E G61V A101N S107T showed nd, 1.40, -0.13, 0.44, 2.21, nd (mean 0.98). With F27K T28S G61A the result was nd, nd, nd, nd, nd, nd. With G26F T28D T104W D106N the result was nd, nd, nd, 3.34, 0.98, nd (mean 2.16). For S31D G61H D106E, the assay gave 2.32, 2.52, 1.57, 1.32, 1.86, 1.88 (mean 1.91).

For G61A R100H A102G, the assay gave nd, nd, 2.33, 4.12, nd, nd (mean 3.23). The variant T28F S31D G61I R100T gave 1.18, 0.41, 0.90, 0.91, 1.09, 1.44 (mean 0.99). With F27E S31T F59M R100Q T104S the result was nd, nd, nd, nd, nd, 2.47. With G61A R100K A101E S107R the result was -0.45, -0.07, 0.02, 0.11, -0.04, -0.35 (mean -0.13). With G26C S31Q G33H I34V G61S T104F the result was nd, nd, nd, nd, nd, nd. The variant T28C S31E A101T S107L showed nd, 1.66, 3.92, 2.44, 2.67, 2.86 (mean 2.71). The variant G26E G61S R100E A102G S107V showed -0.26, 1.07, nd, 0.44, 0.74, 0.13 (mean 0.43).

For T28Q S31E R56M A101T, the assay gave 1.28, 0.18, 0.00, -0.34, 0.36, -0.06 (mean 0.24). The variant T28E G61Q R100Q A101N gave 1.38, 0.91, 1.73, 1.09, 1.71, 1.56 (mean 1.40). With T28N S31D R100S A102S the result was nd, nd, 2.79, 4.02, 2.98, 2.68 (mean 3.12). The variant L29V F59M S107Q gave nd, nd, nd, nd, nd, nd. The variant N30D S53A R100S F105A D106L showed nd, nd, nd, nd, nd, nd. The variant L29M S31T G61S R100F gave nd, nd, nd, nd, nd, nd. For T28V R100K A101T, the assay gave nd, nd, nd, nd, nd, nd.

The variant R100M A101E gave 1.51, 1.10, 0.97, 0.91, 0.92, 1.03 (mean 1.07). The variant G61I R100K S107T gave 1.52, 1.47, 2.49, 2.88, 1.78, 2.03 (mean 2.03). With G61S T104F D106S the result was nd, nd, nd, nd, nd, nd. For S107W, the assay gave nd, nd, nd, nd, nd, nd. For S31E Y32P G33L G103V S107Q, the assay gave nd, nd, nd, nd, nd, nd. For T28E R100V A101L S107K, the assay gave 0.50, 0.32, 0.75, 1.05, 0.41, 0.82 (mean 0.64). The variant R56L A101T gave 1.63, 2.04, 1.69, 1.45, 1.13, 2.01 (mean 1.66).

With T28D K65V G99W A101L T104M S107N the result was nd, nd, nd, nd, nd, nd. With L29K S31E G33V G103V S107Q the result was nd, nd, nd, nd, nd, nd.

For reference, 4 entries of the list once more:

For G26C S31Q G33H I34V G61S T104F, the assay gave nd, nd, nd, nd, nd, nd.
For N30D S53A R100S F105A D106L, the assay gave nd, nd, nd, nd, nd, nd.
For R56L A101T, the assay gave 1.63, 2.04, 1.69, 1.45, 1.13, 2.01 (mean 1.66).
For T28S G61D R100M A101K, the assay gave 1.01, 1.07, 1.53, 1.17, 0.81, 1.56 (mean 1.19).

Nonspecific signal, from three strains lacking the peptide, appeared in 1% of pairings of all heavy chain designs, centred on 2.08 (5% of these signals below 0.84); values are not corrected for it. The range of this assay differs from that of the first round, and the authors advise against merging the two.